Drawing on patent US20110251188A1, “ACENAPHTHO HETEROCYCLE COMPOUNDS, CYCLODEXTRIN INCLUSION COMPOUNDS AND COMPLEXES, AND USES IN THE MANUFACTURES OF BH3 PROTEIN ANALOGUE, BCL-2 FAMILY PROTEIN INHIBITORS THEREOF” (DALIAN UNIVERSITY OF TECHNOLOGY, priority 2008, published 2011), this text covers Solubility of compounds for one substance.

This series is described as follows: phase solubility experiment (solubility in water before and after cyclodextrin inclusion or complexation). To be noted: Table 1, compound per se, before inclusion.

As for “6-(thienyl-2-methylamino)-8-oxo-8H-acenaphtho[1,2-b]pyrrole-9-carbonitrile”, the Solubility of compounds was 0.37 µM.
